# Screening results deposited in PubChem by Broad Institute.
# Yeast UUG start-1: alters start codon recognition fidelity in yeast | S. cerevisiae UUG-firefly luciferase reporter, luminescence/redox ratio | activity score, % at 18.7 µM | 350,000 compounds, 0.13% hits | AID 602363;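 active = replicate mean at a twofold rise or more, about +100% in these data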;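 note: firefly luciferase made from a UUG start codon reports start codon fidelity; reporter light over untreated wells divided by growth signal over untreated wells; some hits fall short of that in this replicate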
# ERAP1 HTS inh: blocks human ERAP1 aminopeptidase activity; inhibition, % at 10.7 µM; 0.15% of 340,000 active; recombinant ERAP1, Leu-AMC fluorescence, 60 min; AID 652197; Q9NZ08;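 active = mean replicate inhibition of at least 30%, or all replicates individually reaching that 30% level; inactive = mean below 30% and not every replicate reaching it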
# ARNT-TACC3 inh: disrupts binding between human ARNT and TACC3; Q9Y6A5; AlphaScreen His-ARNT PAS-B/GST-TACC3 binding, luminescence; TACC3 fragment carries E629A point mutation; inhibition, % at 9.99 µM; 0.66% of 390,000 active; AID 623870;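 active = mean inhibition of replicates at least 50% and at least half of replicates each reaching 50%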
# MLL AF4-AF9 inh: inhibitors of human MLL-AF4/AF9 interaction. P42568. AlphaScreen, biotin-AF4 peptide binding to FLAG-AF9. inhibition, % at 10 µM. 0.47% of 350,000 active;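 active = every replicate reaching a set inhibition limit, whatever the replicate mean, cut at about 25% in these data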
# S100A4 MyoIIA: blocks human S100A4 binding to myosin IIA peptide; inhibition, % at 10.7 µM; 0.14% of 360,000 active; P26447; AID 652163; S100A4/TAMRA-MyoIIA peptide fluorescence polarization;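 active = mean inhibition of at least 70% across replicates, with every replicate also reaching that level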
#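 Test system: S100A4 monomer protein; Medium: HEPES pH 7.2 with CaCl2, KCl, NaCl, DTT, Triton; Probe or stimulus: TAMRA-labelled myosin IIA heavy-chain peptide probe, 5 nM; Doses: one dose per compound; Times: polarization read 5 min after assay mix addition, stable 5–60 min; Benchmarks: neutral control DMSO, positive control TFP.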
# E-sel inducer: E-selectin induction on HUVECs. activation, % at 7.58 µM. HUVEC E-selectin immunofluorescence imaging; normalized: neutral wells 0, TNF-alpha wells 100. 0.37% of 260,000 active. AID 686992;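 active = mean E-selectin-positive cell signal at least 10% of the positive control, reached in at least 60% of replicates, without over 20% cell loss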
#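 Material: HUVEC primary endothelial cells; Amount: 3,000 cells per well; Dosing: single concentration; Medium: EGM-2 growth medium on 0.1% gelatin-coated wells; Read-out basis: percent E-selectin-positive cells; Signal: immunofluorescence imaging; Control set: TNF-alpha, DMSO.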
# Yeast UUG start-2: modulators of start codon recognition fidelity in yeast; shares compounds with Yeast UUG start-1; S. cerevisiae UUG-start firefly luciferase, luminescence, 4 h; 100% means double the DMSO signal; activation, % at 38 µM; 540 tested, under 10 active;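 active = signal increase whose fitted curve reaches an absolute level of 40 at a concentration under 10 µM; inactive = activity opposite to the expected increase, or the rest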
# A number is an active result; - = inactive; . = no result. A selection: hits, their analogues and other compounds. The true share with any hit is near 1.3%.
SMILES,Yeast UUG start-1,ERAP1 HTS inh,ARNT-TACC3 inh,MLL AF4-AF9 inh,S100A4 MyoIIA,E-sel inducer,Yeast UUG start-2
Cc1cc(C)c(S(=O)(=O)N2CCN(S(=O)(=O)N3CCC(C)CC3)CC2)c(C)c1,active,-,-,-,-,-,-
O=C(CN1CCOCC1)NCC[C@@H]1CC[C@H](NC(=O)Nc2ccc(Cl)cc2)[C@@H](CO)O1,119,-,.,-,-,-,-
O=C(CN1CCOCC1)NCC[C@@H]1CC[C@H](NC(=O)Nc2ccc(F)cc2)[C@H](CO)O1,-,-,-,-,-,-,.
O=C(CN1CCOCC1)NCC[C@H]1CC[C@H](NC(=O)Nc2ccc(F)cc2)[C@H](CO)O1,184,-,-,-,-,-,-
O=C(CN1CCOCC1)NCC[C@@H]1CC[C@@H](NC(=O)Nc2ccc(Cl)cc2)[C@H](CO)O1,-,-,.,-,-,-,.
COc1ccccc1-c1ccc2c(c1)[C@H]1[C@H](CCN1S(=O)(=O)c1cccc(C)c1)[C@@H](CO)N2,-,-,-,-,-,-,.
COc1cc(C(C)=O)ccc1OCc1cn(CC(=O)c2ccc(O)cc2)nn1,157,-,-,-,-,-,-
O=C(Cn1cc(COc2ccccc2C(F)(F)F)nn1)c1ccc(O)cc1,141,-,-,-,-,-,-
O=C(Cn1cc(COc2cc(F)cc(F)c2)nn1)c1ccc(O)cc1,-,-,-,-,-,-,.
CC(=O)c1ccc(OCc2cn(CC(=O)c3ccc(O)cc3)nn2)c(C)c1,-,.,.,-,-,-,.
CC(=O)Nc1ccc(OCc2cn(CC(=O)c3ccc(O)cc3)nn2)cc1,96,-,.,-,-,-,-
Cc1noc(C)c1NC(=O)Nc1ccc2c(c1)C(=O)N([C@@H](C)CO)C[C@@H](C)[C@H](CN(C)S(C)(=O)=O)OCCCC[C@@H](C)O2,.,-,.,-,-,-,.
COc1cc(CCC(=O)OCC(=O)Nc2cccc(S(=O)(=O)N(C)C)c2)cc(OC)c1OC,.,-,-,-,-,-,.
CCN(CC)S(=O)(=O)c1ccc(NC(=O)COC(=O)CCc2cc(OC)c(OC)c(OC)c2)cc1,.,.,-,.,.,.,-
CCNC(=O)C[C@@H]1CC[C@@H]2[C@H](COc3ccc(NC(=O)Nc4ccccc4C)cc3C(=O)N2C)O1,-,-,-,-,-,-,.
Cc1cc(-n2c(C)cc(C(=O)CSc3nncn3C(C)C)c2C)no1,.,-,-,-,-,-,-
COc1cccc(Nc2ccccc2C(=O)O)c1,.,-,-,-,-,-,.
COc1cccc(Oc2ccc(OC)cc2C(=O)O)c1,117,.,-,-,-,.,-
Cc1cccc(C(=O)Nc2cccnc2Cl)c1,146,-,-,-,-,.,-
CO[C@@H]1CN(C)C(=O)c2ccc(NS(C)(=O)=O)cc2OC[C@H](C)N(CC2CCOCC2)C[C@@H]1C,-,-,-,-,-,-,.
CC12CCC(C(=O)N(CC(O)CN3CCN(Cc4ccccc4)CC3)C1=O)C2(C)C (stereo not drawn),102,.,.,-,-,.,-
CC(=O)N1CSCC1C(=O)NNS(=O)(=O)c1ccccc1 (stereo not drawn),124,.,.,-,-,.,-
CC(C)NC(=O)N1C[C@H]2[C@@H](c3ccccc31)[C@@H](CO)N2C(=O)c1ccccc1,-,-,-,-,-,-,.
Cc1ccc(N2CC(C(=O)Nc3nnc(SCC(N)=O)s3)CC2=O)cc1 (stereo not drawn),164,-,-,-,-,-,-
COc1ccc(CN(C)C[C@H]2Oc3ccc(NS(=O)(=O)c4ccc(C)cc4)cc3C(=O)N([C@H](C)CO)C[C@@H]2C)cc1,-,-,-,-,-,-,.
SMILES,Yeast UUG start-1,ERAP1 HTS inh,ARNT-TACC3 inh,MLL AF4-AF9 inh,S100A4 MyoIIA,E-sel inducer,Yeast UUG start-2
Cc1ccc2nc(C(C)(C)C)c(Cc3ccsc3)n2c1,153,-,.,-,-,-,-
CCCNC(=O)C[C@@H]1CC[C@@H]2[C@H](COC[C@@H](O)CN2Cc2cccc(F)c2)O1,107,-,-,-,-,-,-
COc1ccc(S(=O)(=O)N2C[C@@H](O)COC[C@H]3O[C@@H](CC(=O)NCCCN4CCOCC4)CC[C@@H]32)cc1,-,-,-,-,-,-,.
O=C(c1cc(Cl)cc(Cl)c1)N1CCC2CC1c1cc(-c3ccc4c(c3)OCO4)ccc12 (stereo not drawn),active,-,-,-,-,-,-
Cc1ccc(C(=O)N2CCC3CC2c2cc(-c4ccc5c(c4)OCO5)ccc23)cc1 (stereo not drawn),-,-,-,-,-,-,.
C[C@H]1CN([C@@H](C)CO)C(=O)c2cc(C3=CCCCC3)cnc2O[C@@H]1CN(C)C(=O)Nc1ccccc1,-,-,-,-,-,-,.
O=C(C[C@H]1C[C@@H]2c3cc(NC(=O)NC4CCCC4)ccc3O[C@@H]2[C@@H](CO)O1)NCc1ccncc1,.,-,-,-,-,-,.
CN(C)CCCN1C(=O)[C@@]2(Cc3ccccc31)c1ccccc1C(=O)N(Cc1ccccc1C(F)(F)F)[C@H]2c1ccc(CO)cc1,173,-,-,-,-,.,-
COCCCN1C(=O)[C@@]2(Cc3ccccc31)c1ccccc1C(=O)N(Cc1ccccc1)[C@H]2c1ccc(CO)cc1,169,-,-,-,-,.,-
CC(C)N1C(=O)[C@@]2(Cc3ccccc31)c1ccccc1C(=O)N(Cc1ccccc1Cl)[C@H]2c1ccc(CO)cc1,-,-,.,-,-,.,.
Cc1ccccc1-n1c(SCC(=O)c2cc(C)n(C)c2C)nnc1-c1cccnc1,.,.,-,.,.,.,-
O=C(Cc1ccccc1)NNC(=O)Cc1ccccc1,-,-,-,-,-,.,.
O=C(Cc1ccccc1)NC(NNc1ccccc1)(C(F)(F)F)C(F)(F)F,481,.,-,.,.,.,-
CNC[C@@H]1Oc2ccc(NS(=O)(=O)c3ccc(OC)cc3)cc2CC(=O)N([C@H](C)CO)C[C@H]1C,-,-,-,-,-,-,.
COc1ccc(NC(=S)N2CCCC2c2ccc(OC)c(OC)c2)cc1 (stereo not drawn),339,-,-,-,-,.,-
COc1ccc(C2CCCN2C(=S)Nc2cccc(C)c2)cc1OC (stereo not drawn),.,-,-,-,-,-,.
Cc1ccc(-c2ccc([C@H]3[C@@H](CO)N4C(=O)CN(C(=O)c5ccncc5)C[C@H]34)cc2)cc1,.,-,.,-,-,-,.
Cc1ccc(S(=O)(=O)N[C@H]2CC[C@@H](CCNC(=O)c3ccc4c(c3)OCO4)O[C@@H]2CO)cc1,170,-,-,-,-,-,-
Cc1ccc(S(=O)(=O)N[C@H]2CC[C@H](CCNC(=O)c3ccc4c(c3)OCO4)O[C@@H]2CO)cc1,-,-,-,-,-,-,.
